Results: PubChem BioAssay (NCI)
Some salts or complexes appear as unconnected parts, following the source record.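 1) Cells in 96-well plates. 2) Compound, 48 h, 5 concentrations. 3) Linear interpolation between surrounding doses. 4) Unreached endpoint = highest concentration. GI50: concentration for 50% inhibition of growth. TGI denotes the concentration required for complete inhibition of growth.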

Columns and labels:
Assay in all cases: inhibition of tumour cell growth, NCI panel, 48 h
LOX IMVI melanoma = tested on: LOX IMVI melanoma
IGROV1 ovarian = tested on: IGROV1 ovarian
NCI-H226 lung = tested on: NCI-H226 lung
SK-MEL-28 melanoma = tested on: SK-MEL-28 melanoma
SF-295 CNS = tested on: SF-295 CNS
786-0 renal = tested on: 786-0 renal
HCC-2998 colon = tested on: HCC-2998 colon
NCI-H460 lung = tested on: NCI-H460 lung
HCT-116 colon = tested on: HCT-116 colon
KM12 colon = tested on: KM12 colon
OVCAR-4 ovarian = tested on: OVCAR-4 ovarian
SNB-78 CNS = tested on: SNB-78 CNS
ACHN renal = tested on: ACHN renal
OVCAR-5 ovarian = tested on: OVCAR-5 ovarian
OVCAR-3 ovarian = tested on: OVCAR-3 ovarian
HOP-92 NSCLC = tested on: HOP-92 NSCLC
MALME-3M melanoma = tested on: MALME-3M melanoma
DMS 114 small cell lung = tested on: DMS 114 small cell lung
NCI-H522 lung = tested on: NCI-H522 lung
SNB-19 CNS = tested on: SNB-19 CNS
NCI-H322M lung = tested on: NCI-H322M lung
SK-MEL-2 melanoma = tested on: SK-MEL-2 melanoma
UACC-62 melanoma = tested on: UACC-62 melanoma
DLD-1 colon = tested on: DLD-1 colon
K-562 leukemia = tested on: K-562 leukemia
HOP-18 NSCLC = tested on: HOP-18 NSCLC
NCI-H23 lung = tested on: NCI-H23 lung
UACC-257 melanoma = tested on: UACC-257 melanoma
RXF 393 renal = tested on: RXF 393 renal
M14 melanoma = tested on: M14 melanoma
KM20L2 colon = tested on: KM20L2 colon
SF-539 CNS = tested on: SF-539 CNS
UO-31 renal = tested on: UO-31 renal
SK-MEL-5 melanoma = tested on: SK-MEL-5 melanoma

Compound: C(c1nnn[n-]1)c1nnn[n-]1.[Au+].[Au+].c1ccc([PH+](c2ccccc2)c2ccccc2)cc1.c1ccc([PH+](c2ccccc2)c2ccccc2)cc1
- GI50 (LOX IMVI melanoma): 0.992 µM
- TGI (LOX IMVI melanoma): 2.19 µM
- GI50 (IGROV1 ovarian): 0.701 µM
- TGI (IGROV1 ovarian): 2.49 µM
- GI50 (NCI-H226 lung): 0.867 µM
- TGI (NCI-H226 lung): 2.11 µM
- GI50 (SK-MEL-28 melanoma): 0.637 µM
- TGI (SK-MEL-28 melanoma): 2.02 µM
- GI50 (SF-295 CNS): 1.55 µM
- TGI (SF-295 CNS): 2.89 µM
- TGI (786-0 renal): 1.02 µM
- GI50 (HCC-2998 colon): 1.7 µM
- TGI (HCC-2998 colon): 4.59 µM
- GI50 (NCI-H460 lung): 1.68 µM
- TGI (NCI-H460 lung): 3.64 µM
- GI50 (HCT-116 colon): 1.43 µM
- TGI (HCT-116 colon): 3.9 µM
- GI50 (KM12 colon): 1.63 µM
- TGI (KM12 colon): 3.71 µM
- GI50 (OVCAR-4 ovarian): 0.739 µM
- TGI (OVCAR-4 ovarian): 2.15 µM
- GI50 (SNB-78 CNS): 0.514 µM
- TGI (SNB-78 CNS): 2.97 µM
- GI50 (ACHN renal): 1.25 µM
- TGI (ACHN renal): 2.52 µM
- GI50 (OVCAR-5 ovarian): 1.94 µM
- TGI (OVCAR-5 ovarian): 3.4 µM
- GI50 (OVCAR-3 ovarian): 1 µM
- TGI (OVCAR-3 ovarian): 2.23 µM
- GI50 (HOP-92 NSCLC): 0.678 µM
- TGI (HOP-92 NSCLC): 1.71 µM
- GI50 (MALME-3M melanoma): 0.666 µM
- TGI (MALME-3M melanoma): 2.83 µM
- TGI (DMS 114 small cell lung): 2.12 µM
- GI50 (NCI-H522 lung): 0.149 µM
- TGI (NCI-H522 lung): 0.386 µM
- GI50 (SNB-19 CNS): 1.18 µM
- TGI (SNB-19 CNS): 2.41 µM
- GI50 (NCI-H322M lung): 1.56 µM
- TGI (NCI-H322M lung): 2.98 µM
- GI50 (SK-MEL-2 melanoma): 0.783 µM
- TGI (SK-MEL-2 melanoma): 2.09 µM
- TGI (UACC-62 melanoma): 2.12 µM
- GI50 (DLD-1 colon): 0.294 µM
- TGI (DLD-1 colon): 1.55 µM
- GI50 (K-562 leukemia): 0.362 µM
- TGI (K-562 leukemia): 3.87 µM
- GI50 (HOP-18 NSCLC): 1.18 µM
- TGI (HOP-18 NSCLC): 2.41 µM
- GI50 (NCI-H23 lung): 1.03 µM
- TGI (NCI-H23 lung): 2.55 µM
- GI50 (UACC-257 melanoma): 0.742 µM
- TGI (UACC-257 melanoma): 2.22 µM
- TGI (RXF 393 renal): 0.857 µM
- GI50 (M14 melanoma): 0.731 µM
- TGI (M14 melanoma): 2.35 µM
- GI50 (KM20L2 colon): 1.21 µM
- TGI (KM20L2 colon): 2.55 µM
- GI50 (SF-539 CNS): 1.41 µM
- TGI (SF-539 CNS): 2.74 µM
- GI50 (UO-31 renal): 1.6 µM
- TGI (UO-31 renal): 2.95 µM
- GI50 (SK-MEL-5 melanoma): 0.399 µM
- TGI (SK-MEL-5 melanoma): 1.62 µM
